Measurements published in US20260234099A1, “Endocannabinoid ligands and related analogs” (Northeastern University, priority 2023, published 2026).

By UniProt entry, the sequences of proteins in these tests, tags left out.
UniProt P20272, whole entry: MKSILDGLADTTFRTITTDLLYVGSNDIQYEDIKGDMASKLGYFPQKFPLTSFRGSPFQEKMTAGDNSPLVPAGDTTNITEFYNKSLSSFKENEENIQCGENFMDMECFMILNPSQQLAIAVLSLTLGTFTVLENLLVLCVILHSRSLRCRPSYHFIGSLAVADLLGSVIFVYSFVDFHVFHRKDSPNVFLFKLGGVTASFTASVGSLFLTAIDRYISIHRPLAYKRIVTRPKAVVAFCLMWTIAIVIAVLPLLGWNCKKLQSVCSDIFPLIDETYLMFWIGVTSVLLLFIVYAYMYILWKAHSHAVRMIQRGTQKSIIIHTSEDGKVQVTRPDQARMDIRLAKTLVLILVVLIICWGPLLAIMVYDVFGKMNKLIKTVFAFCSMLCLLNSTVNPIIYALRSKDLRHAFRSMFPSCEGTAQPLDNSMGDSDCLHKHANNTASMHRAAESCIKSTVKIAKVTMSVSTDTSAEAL

Columns and labels:
[1] = target: CB1 receptor (Rattus norvegicus, UniProt P20272); test: CB1 receptor binding affinity (Ki)
Description: (§1) Some disclosed compounds were tested for CB1 and CB2 receptor binding affinity (Tables 1, 2, 3, 4, 5). As used herein “binding affinity” is represented by the Ki value. The Ki value is the affinity constant and describes the affinity of the compound for the receptor. The lower the Ki value, the higher the affinity of the compound for the receptor. A detailed description of the methods used to test “binding affinity” of compounds is given in Makriyannis, et al., US 2007/0135388 the content of which is hereby incorporated by reference.

[2] = target: CB2 receptor (Homo sapiens, UniProt P34972); test: CB2 receptor binding affinity (Ki); parameters: CB2 receptor Ki; CB2 receptor Ki (PMSF); other: with PMSF
Description: as §1

With `CCCCC/C=C\C/C=C\C/C=C\C/C=C\CCCC(=O)NCCO` [AEA, N-arachidonoyl ethanolamine, reference compound] as the molecule, how does the Ki ([1]; with PMSF, read-out: CB1 Receptor Ki with PMSF) read?
Its Ki is 10 to 200 nM.

And the Ki ([1]; without PMSF, read-out: CB1 receptor affinity Ki)?
Its Ki is > 1000 nM.

And the Ki [2]?
Its Ki is 10 to 200 nM.

Where two headings read alike, the source gives them in different places.
